Measured values as given in US20210253598A1, “ARYL ANNULATED MACROCYCLIC INDOLE DERIVATIVES” (priority 2017, published 2021).

The chains behind the UniProt entries cited, without tags or fusion partners. Residues count along the entry.
UniProt Q07817, 1-212: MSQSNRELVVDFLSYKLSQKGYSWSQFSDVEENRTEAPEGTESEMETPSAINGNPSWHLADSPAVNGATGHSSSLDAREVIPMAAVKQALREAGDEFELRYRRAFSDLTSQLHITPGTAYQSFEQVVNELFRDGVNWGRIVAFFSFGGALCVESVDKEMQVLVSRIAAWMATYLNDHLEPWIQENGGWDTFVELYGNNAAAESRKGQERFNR
UniProt P10415, 1-211: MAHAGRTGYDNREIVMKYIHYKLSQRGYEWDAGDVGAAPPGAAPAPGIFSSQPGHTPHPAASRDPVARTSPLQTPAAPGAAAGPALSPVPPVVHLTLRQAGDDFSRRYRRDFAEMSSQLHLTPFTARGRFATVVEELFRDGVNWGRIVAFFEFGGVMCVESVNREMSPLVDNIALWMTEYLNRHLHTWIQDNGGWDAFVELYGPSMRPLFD

Experiments:
MCL-1 [1] = biological target: T1, MCL-1 (Homo sapiens, UniProt Q07820, K194A/K197A/R201A); assay: Protein-protein interaction assay MCL-1/Noxa BH3 peptide, TR-FRET (MCL-1 assay, Assay 1); assay type: binding
SUDHL5 [2] = assay: Induction of caspase-3/7 activity in SUDHL5 cells (Assay 4); assay type: cell-based
SUDHL10 [3] = assay: Induction of caspase-3/7 activity in SUDHL10 cells (Assay 4); assay type: cell-based
SUDHL5 [4] = assay: Induction of cytotoxicity in SUDHL5 cells, CellTiter-Glo (Assay 6); assay type: cell-based
SUDHL10 [5] = assay: Induction of cytotoxicity in SUDHL10 cells, CellTiter-Glo (Assay 6)
SUDHL5 [6] = assay: Anti-proliferative effect in SUDHL5 cells, CellTiter-Glo (Assay 7); assay type: cell-based
MV-4-11 = assay: Anti-proliferative effect in MV-4-11 cells, CellTiter-Glo (Assay 7)
A2780 = assay: Anti-proliferative effect in A2780 cells, CellTiter-Glo (Assay 7)
MCL1 protein = MCL1 protein (Homo sapiens, UniProt Q07820); assay: PIxEL: protein-protein interaction in permeabilized cells by ELISA (Assay 5); assay type: cell-based; conditions: read-out: PIxEL [M] (median), permeabilized RKO cells, biotin-BIM BH3 peptide 0.2 μM, serum free, tested form: N-ethylethanamine (diethylamine) salt
MCL-1 [7] = biological target: T1, MCL-1; assay: Protein-compound interaction assay, surface plasmon resonance (SPR assay, Assay 8); assay type: binding; conditions: immobilized MBP-MCL-1, 25° C., geometric mean, tested form: N-ethylethanamine (diethylamine) salt
AMO-1 = assay: Anti-proliferative effect in AMO-1 cells, CellTiter-Glo (Assay 7)
BCL-XL = BCL-XL (Homo sapiens, UniProt Q07817); assay: Protein-protein interaction assay BCL-XL/Bad BH3 peptide, TR-FRET (BCL-XL assay, Assay 2); assay type: binding; conditions: read-out: BCL-XL Assay [M] (median), His-BCL-XL / Bad BH3 peptide, tested form: N-ethylethanamine (diethylamine) salt
BCL-2 = BCL-2 (Homo sapiens, UniProt P10415); assay: Protein-protein interaction assay BCL-2/Bad BH3 peptide, TR-FRET (BCL-2 assay, Assay 3); assay type: binding; conditions: read-out: BCL-2 Assay [M] (median), His-BCL-2 / Bad BH3 peptide, tested form: N-ethylethanamine (diethylamine) salt
SUDHL10 [8] = assay: Anti-proliferative effect in SUDHL10 cells, CellTiter-Glo (Assay 7); conditions: read-out: Antiproli SUDHL10 [M] (median), SUDHL10, 72 hours incubation, tested form: N-ethylethanamine (diethylamine) salt
[9] = read-out: MCL-1 Assay [M] (median), MBP-MCL-1 / Noxa BH3 peptide
[10] = read-out: Caspase SUDHL5 [M] (median), SUDHL5, 3 hours treatment, Caspase-Glo 3/7
[11] = read-out: Caspase SUDHL10 [M] (median), SUDHL10, 3 hours treatment, Caspase-Glo 3/7
[12] = read-out: Cytotox SUDHL5 [M] (median), SUDHL5, 5 hours incubation
[13] = read-out: Cytotox SUDHL10 [M] (median), SUDHL10, 5 hours incubation
[14] = read-out: Antiproli SUDHL5 [M] (median), SUDHL5, 72 hours incubation
[15] = read-out: Antiproli A2780, A2780, 72 hours incubation, several values per example
[16] = read-out: MCL-1 Assay [M] (median), MBP-MCL-1 / Noxa BH3 peptide, tested form: N-ethylethanamine (diethylamine) salt
[17] = read-out: Caspase SUDHL5 [M] (median), SUDHL5, 3 hours treatment, Caspase-Glo 3/7, tested form: N-ethylethanamine (diethylamine) salt
[18] = read-out: Caspase SUDHL10 [M] (median), SUDHL10, 3 hours treatment, Caspase-Glo 3/7, tested form: N-ethylethanamine (diethylamine) salt
[19] = read-out: Cytotox SUDHL5 [M] (median), SUDHL5, 5 hours incubation, tested form: N-ethylethanamine (diethylamine) salt
[20] = read-out: Antiproli SUDHL5 [M] (median), SUDHL5, 72 hours incubation, tested form: N-ethylethanamine (diethylamine) salt
[21] = read-out: Antiproli MV-4-11, MV-4-11, 72 hours incubation, several values per example, tested form: N-ethylethanamine (diethylamine) salt
[22] = read-out: Antiproli A2780, A2780, 72 hours incubation, several values per example, tested form: N-ethylethanamine (diethylamine) salt

Row | SMILES | IC50 (MCL-1 [1]; [9]) [M] | EC50 (SUDHL5 [2]; [10]) [M] | EC50 (SUDHL10 [3]; [11]) [M] | IC50 (SUDHL5 [4]; [12]) [M] | IC50 (SUDHL10 [5]; [13]) [M] | IC50 (SUDHL5 [6]; [14]) [M] | IC50 (A2780; [15]) | IC50 (MCL-1 [1]; [16]) [M] | EC50 (SUDHL5 [2]; [17]) [M] | EC50 (SUDHL10 [3]; [18]) [M] | IC50 (MCL1 protein) [M] | IC50 (SUDHL5 [4]; [19]) [M] | IC50 (SUDHL5 [6]; [20]) [M] | IC50 (MV-4-11; [21]) | IC50 (A2780; [22]) | Kd (MCL-1 [7]) [nM] | koff (MCL-1 [7]) [s⁻¹] | kon [1/M 1/s] (MCL-1 [7]) | also measured
1 | CCc1nn(CCN2CCOCC2)c2c1-c1c(Cl)ccc3c(CCCOc4cccc5ccccc45)c(C(=O)O)n(c13)Cc1ccccc1COC2 | 1.7e-09 | 1.9e-06 | 4.9e-06 | 1.6e-06 | 3.5e-06 | 1.9e-06 | 9040 nM and 6670 nM | – | – | – | – | – | – | – | – | – | – | – | IC50 (MV-4-11; read-out: Antiproli MV-4-11, MV-4-11, 72 hours incubation, several values per example): 3980 nM and 4970 nM
2 | CCc1nn(CCN2CCOCC2)c2c1-c1c(Cl)ccc3c(CCCOc4cccc5ccccc45)c(C(=O)O)n(c13)Cc1ccccc1COC2 [Example 35] | – | – | – | – | – | – | – | 5.4e-09 | 4.2e-06 | 1.3e-05 | 1.85e-05 | 7e-06 | 7.1e-06 | 11900 nM | 9210 nM | 110 | 0.066 | 5.8E5 1/M 1/s | –
3 | Cc1c2c(nn1C)COCc1ncccc1Cn1c(C(=O)O)c(CCCOc3cccc4ccccc34)c3ccc(Cl)c-2c31 | 1.1e-09 | 1.5e-06 | 3e-06 | 1.7e-06 | 3.5e-06 | 1.5e-06 | 19500 nM | – | – | – | – | – | – | – | – | – | – | – | IC50 (AMO-1; read-out: Antiproli AMO-1, AMO-1, 72 hours incubation, several values per example): 11400 nM
4 | CCc1nn(CCN2CCOCC2)c2c1-c1c(Cl)ccc3c(CCCOc4cccc5ccccc45)c(C(=O)O)n(c13)Cc1ccccc1COC2 [Example 34] | – | – | – | – | – | – | – | 6.6e-10 | 4.9e-07 | 1e-06 | 1.11e-06 | 6.8e-07 | 4.8e-07 | 1730 nM and 1510 nM and 1950 nM | 5030 nM and 4680 nM | 4 | 0.008 | 2.0E6 1/M 1/s | IC50 (BCL-XL): > 2e-05 M; IC50 (BCL-2): > 2e-05 M; IC50 (SUDHL10 [5]; read-out: Cytotox SUDHL10 [M] (median), SUDHL10, 5 hours incubation, tested form: N-ethylethanamine (diethylamine) salt): 1.4e-06 M; IC50 (SUDHL10 [8]): 1.2e-06 M; IC50 (AMO-1; read-out: Antiproli AMO-1, AMO-1, 72 hours incubation, several values per example, tested form: N-ethylethanamine (diethylamine) salt): 2950 nM

Where “and” joins values, the source holds several entries; their conditions need not be identical. Identical values can stand only once. Like-named read-outs stand apart in the source and are kept apart here.
